We go through three compounds from patent US8946302B2, “Selective sigma-1 receptor ligands” (Wisconsin Alumni Research Foundation, priority 2008, dated 2015).

Chains of the proteins cited; added tags and fusions are not shown.
UniProt Q60492, whole entry: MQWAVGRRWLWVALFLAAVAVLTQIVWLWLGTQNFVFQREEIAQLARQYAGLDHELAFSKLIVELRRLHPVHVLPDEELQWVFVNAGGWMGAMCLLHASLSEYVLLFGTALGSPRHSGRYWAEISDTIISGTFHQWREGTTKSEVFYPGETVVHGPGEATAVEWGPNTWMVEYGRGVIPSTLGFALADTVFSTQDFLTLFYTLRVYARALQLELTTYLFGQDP

This test addresses T1, σ-1 Sites (Cavia porcellus, UniProt Q60492).
T1 construct: from tissue
Kind of test: σ-1 sites radioligand binding, guinea pig liver membranes (Table 2). Particulars: σ-2 rat liver / σ-1 guinea pig liver membranes.
Regarding `CCCCCCCNCCCc1ccccc1` [Compound 1c, N-(3-Phenylpropyl)heptane-1-amine], the “σ-1 selectivity σ-2 Ki/σ-1 Ki” value worked out at 2.

With `CCCCCCCCCCCCNCCCc1ccc([N+](=O)[O-])cc1` [Compound 1f, N-(3-(4-Nitrophenyl)propyl)dodecan-1-amine], the “σ-1 selectivity σ-2 Ki/σ-1 Ki” value is on record as 0.4.

As to `CCCCCCCCCCCCNCCCc1ccccc1` [Compound 1e, N-(3-Phenylpropyl)dodecan-1-amine], the “σ-1 selectivity σ-2 Ki/σ-1 Ki” value turned out to be 0.4.
